From ChEMBL document CHEMBL4376854, “Investigation of the Adrenergic and Opioid Binding Affinities, Metabolic Stability, Plasma Protein Binding Properties, and Functional Effects of Selected Indole-Based Kratom Alkaloids” (J Med Chem, 2020)

How the values were obtained:
[1] = human, plasma, 1 µM
[2] = human, microsomes, 1 µM

Question: Which Fu [1] does the source give for CC[C@@H]1CN2CCc3c([nH]c4cccc(O)c34)[C@@H]2C[C@@H]1/C(=C\OC)C(=O)OC here?
Answer: 0.027

Question: What about the Fu [2] of the same molecule?
Answer: 0.534
